Publication PMC10763615, “Identification and engineering of potent cyclic peptides with selective or promiscuous binding through biochemical profiling and bioinformatic data analysis” (RSC Chemical Biology, 2023)

The chains behind the UniProt entries cited, without tags or fusion partners. Where a name states a change or a piece, a line headed by the entry shows the natural chain unless it says otherwise. Residues count along the entry.
UniProt P11362, 22-376 limits assumed: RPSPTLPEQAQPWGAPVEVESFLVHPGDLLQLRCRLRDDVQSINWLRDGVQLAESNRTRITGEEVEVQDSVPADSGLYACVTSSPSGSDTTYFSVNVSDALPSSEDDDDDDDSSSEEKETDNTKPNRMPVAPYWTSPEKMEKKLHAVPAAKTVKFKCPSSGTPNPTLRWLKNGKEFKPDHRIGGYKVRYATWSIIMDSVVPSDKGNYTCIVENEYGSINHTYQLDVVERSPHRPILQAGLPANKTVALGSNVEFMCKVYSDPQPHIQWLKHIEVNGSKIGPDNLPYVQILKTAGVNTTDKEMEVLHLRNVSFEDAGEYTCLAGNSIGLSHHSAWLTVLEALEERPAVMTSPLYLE

Key:
FGF-R1C ECD [1] = target: T1, FGF-R1C ECD (Homo sapiens, UniProt P11362); assay: biochemical; format: binding; design: DNA constructs for the extracellular domain (ECD) of human FGF-; HPC4 (C); made in house; host or cells: HEK 293-6E
Method: (§1) KD affinity binding measurements were obtained by biolayer interferometry (BLI) instruments (Fortebio Octet HTX, or Sartorius Octet RH16 using either 8 or 16 channel mode.
(§2) For single concentration binding experiments, 50 μM peptide stocks in folding buffer were diluted 1:50 in mRNA display selection buffer (PBS pH7.4 supplemented with 0.05% Tween-20 and 0.01% BSA) in either a 96 well black plate, or a 384 well tilted bottom microplate (ForteBio). Biotinylated FGF-R protein was loaded onto Streptavidin-functionalised biosensors (ForteBio) and immersed into ~1 μM peptide to obtain association kinetics curves. Dissociation kinetics curves were obtained by subsequent immersion of ligand-associated loaded sensors into a 1:50 dilution of folding buffer in mRNA display selection buffer. Fitted KD data was adjusted for concentration as determined by UPLC-CAD.
(§3) For accurate multi-concentration KD determination, dilution series of each peptide were made, and association and dissociation kinetics curves were obtained as above for each concentration to fit a multi-point KD binding model. Data collection and analysis was performed using the Octet Instrument Control […]
(§4) concentration assay kinetics curves shown in supplementary Figure S 19-24.

FGF-R3C ECD [2] = target: T2, FGF-R3C ECD (Homo sapiens, UniProt P22607); assay: biochemical; format: binding; design: DNA constructs for the extracellular domain (ECD) of human FGF-; HPC4 (C); made in house; host or cells: HEK 293-6E
T2 sequence (P22607 23-375 limits assumed): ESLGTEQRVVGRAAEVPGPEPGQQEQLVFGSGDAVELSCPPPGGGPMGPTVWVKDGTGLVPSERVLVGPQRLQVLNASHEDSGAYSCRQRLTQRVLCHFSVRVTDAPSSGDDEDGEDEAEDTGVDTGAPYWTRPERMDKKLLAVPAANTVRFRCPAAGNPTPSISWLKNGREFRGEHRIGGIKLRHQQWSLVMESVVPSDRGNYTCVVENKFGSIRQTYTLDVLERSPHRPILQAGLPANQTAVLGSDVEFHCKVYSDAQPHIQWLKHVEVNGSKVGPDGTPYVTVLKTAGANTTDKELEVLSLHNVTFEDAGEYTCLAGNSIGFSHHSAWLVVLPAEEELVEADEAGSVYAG
Method: as §1, §2, §3, §4

FGF-R1C ECD [3] = target: T1, FGF-R1C ECD; assay: biochemical
Method: as §1, §2, §3, §4

FGF-R3C ECD [4] = target: T2, FGF-R3C ECD; assay: biochemical
Method: as §1, §2, §3, §4

[5] = target: FGFR1c/KLB (Fc-fused human FGF-R1alpha(IIIc) with beta-klotho) (Homo sapiens, UniProt P11362); assay: AlphaScreen FGF21 competitive binding assay
[6] = target: T3, FGFR3c/BKL (Fc-fused human FGF-R3alpha(IIIc) with beta-klotho) (Homo sapiens, UniProt P22607); assay: AlphaScreen FGF21 competitive binding assay
T3 sequence (P22607 23-375 limits assumed): T2 sequence (P22607 23-375 limits assumed)

Compound CSCC[C@@H]1NC(=O)[C@H](CC(N)=O)NC(=O)[C@H](CO)NC(=O)[C@@H](NC(=O)[C@@H](N)CCSC)CSSC[C@@H](C(=O)NCC(=O)N[C@@H](CO)C(=O)NCC(=O)N[C@@H](CO)C(=O)N[C@@H](CC(=O)O)C(=O)N[C@@H](Cc2ccc(O)cc2)C(=O)N[C@@H](CCCCN)C(=O)N[C@@H](CC(=O)O)C(=O)N[C@@H](CC(=O)O)C(=O)N[C@@H](CC(=O)O)C(=O)N[C@@H](CC(=O)O)C(=O)N[C@@H](CCCCN)C(N)=O)NC(=O)[C@H](C)NC(=O)[C@H](Cc2c[nH]c3ccccc23)NC(=O)[C@H](Cc2c[nH]c3ccccc23)NC(=O)[C@H](CCCNC(=N)N)NC(=O)[C@H](CC(N)=O)NC(=O)[C@H](C)NC(=O)[C@H](CC(C)C)NC(=O)[C@H](CCCCN)NC(=O)[C@H](Cc2c[nH]c3ccccc23)NC1=O [1C.3] has a pKd (FGF-R1C ECD [1]) of 6.95, a pKd (FGF-R3C ECD [2]) of 7.52 and a pKd (FGF-R1C ECD [3]) of 7.24. It also gave a pKd (FGF-R3C ECD [4]) of under 6.00, a pIC50 [5] of 7.05 and a pIC50 [6] of under 6.00.

pIC50, pKd: −log10 of the molar value. Like-named read-outs stand apart in the source and are kept apart here.
